Only a part is listed here, and it is no random draw. Inconclusive results are not listed. The source made the active and inactive calls. The call rests on the fitted dose curve; in most records, active means well fitted inhibition curve with a large enough effect; inconclusive means small, poorly fitted or top-dose-only effect; inactive means no such curve, though single readings can be large or run the other way.
On the % scale 0 is the no-effect control and ±100 the full control effect.

Amino acid sequences for entries named in this document (tags omitted).
UniProt O89049, whole entry: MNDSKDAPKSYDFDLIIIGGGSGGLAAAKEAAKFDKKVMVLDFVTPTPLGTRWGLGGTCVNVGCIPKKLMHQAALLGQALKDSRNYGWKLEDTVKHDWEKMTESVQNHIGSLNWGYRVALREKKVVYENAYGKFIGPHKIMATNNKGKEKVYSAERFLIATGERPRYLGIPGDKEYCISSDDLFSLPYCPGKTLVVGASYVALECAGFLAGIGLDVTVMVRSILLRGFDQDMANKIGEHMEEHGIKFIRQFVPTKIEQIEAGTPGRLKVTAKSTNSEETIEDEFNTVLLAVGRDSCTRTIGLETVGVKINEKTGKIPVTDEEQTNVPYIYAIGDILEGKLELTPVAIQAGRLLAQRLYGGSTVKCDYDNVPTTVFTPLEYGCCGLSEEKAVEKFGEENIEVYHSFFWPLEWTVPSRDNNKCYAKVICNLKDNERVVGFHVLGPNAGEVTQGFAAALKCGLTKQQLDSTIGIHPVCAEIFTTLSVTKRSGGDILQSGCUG

For the test, the target named is Thioredoxin reductase 1, cytoplasmic (Rattus norvegicus) (UniProt O89049). In words: qHTS Assay for Inhibitors of Mammalian Selenoprotein Thioredoxin Reductase 1 (TrxR1): qHTS. Further: nearly all actives have a fitted effect of over 65% in size. The following applies: recombinant rTrxR1, NADPH fluorescence consumption, selenite substrate; at 114 µM (top of the series). In general terms: In qHTS, concentration-response curves come from the screen itself.
In the case of `CCC(=O)N(c1ccccc1)C1(COC)CCN(CCn2nnn(CC)c2=O)CC1`, the activity change, negative = inhibition is inactive: 28.6%.

In the case of `CCC(=O)N(c1ccccc1)C1(COC)CCN(CCc2cccs2)CC1`, the activity change, negative = inhibition was inactive: 20.3%.

For the origin of these results see PubChem BioAssay AID588453 (National Center for Advancing Translational Sciences (NCATS), 2011).
